# Antibody variant affinities, Ab-14 heavy chain, assay B

Source: Li et al. 2023 (doi:10.1038/s41467-023-39022-2), MIT Lincoln Laboratory and A-Alpha Bio; data file from the FLAb repository.

All variants were tested on one target, the spike HR2 peptide PDVDLGDISGINAS (SARS-CoV-2).

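The parent was found by panning a naive human phage display library on the peptide. This is the validation round: designs drawn from the data on random variants, tested in the same kind of assay. Their group label is 14H_En_HC (En: ensemble of fine-tuned language models; HC: hill climbing; a sequence that several methods proposed may carry one label only). The assay is AlphaSeq: two haploid yeast populations carry antibody and antigen on their surface. After mating in shaken culture at 30 °C for 16 h, diploids were selected and their barcode pairs sequenced. The ratio of observed to expected reads was calibrated, replicate by replicate, on BCL2-family standards whose Kd was known from biolayer interferometry. Each pool was mated in six replicate cultures.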

Ab-14 is the parent antibody, in scFv form: VH, then the linker GGGGSGGGGSGGGGS, then VL. The light chain is unchanged in all variants.
VH: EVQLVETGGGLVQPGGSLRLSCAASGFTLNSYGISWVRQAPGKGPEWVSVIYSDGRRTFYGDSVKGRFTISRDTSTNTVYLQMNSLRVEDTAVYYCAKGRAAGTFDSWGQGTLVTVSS
VL: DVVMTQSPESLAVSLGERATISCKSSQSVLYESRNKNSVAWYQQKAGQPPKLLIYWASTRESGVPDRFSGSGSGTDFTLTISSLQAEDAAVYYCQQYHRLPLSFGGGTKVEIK

Variants are written as CDR1, CDR2 and CDR3 of the heavy chain (limits as in the source). Parent: GFTLNSYGIS, VIYSDGRRTFYGDSVK, GRAAGTFDS.
Scale: log10 of Kd in nM, estimated from mating counts; low values are strong binders.
A pair that was not seen in that replicate is written "n.d."; this usually means weak binding, but a binder can also be missed.

CDR-H1,CDR-H2,CDR-H3,log10 Kd (nM) by replicate,empty controls
GFDLDEYGIS,VIYADGRRTFYADSVK,GEIAGTFLV,-0.53 -0.31 -0.30 -0.38 -0.38 -0.22,0 of 18
GFDLNEYGIS,VIYADGMRTFYTDSVK,GEFAGTFDA,0.23 0.70 -0.13 -0.25 0.26 0.46,1 of 18 (2.97)
GFDLNEYGIS,VIYADGRRTFYTDSVK,GTNAGTFDV,-1.23 -1.60 -1.63 -2.07 -1.64 -1.40,0 of 18
GFDLNEYGIS,VIYADGVRTFYSDSVK,GEAAGTFDQ,-0.63 -0.68 -0.59 -0.48 -0.48 -0.84,0 of 18
GFDLNEYGIS,VIYADGRRSFYSDSVK,GEAAGTFDV,-0.26 -0.11 -0.13 -0.18 -0.26 -0.03,0 of 18
GFDLNEYGIS,VIYADGSRTFYSDSVK,GNQAGTFDM,0.17 -0.38 -0.68 0.09 0.00 -0.23,0 of 18
GFDLNEYGIS,VIYADGVRTFYVDSVK,GQVAGTFNV,-0.41 -0.67 -0.54 -0.68 -0.76 -0.51,0 of 18
GFDLDEYGIS,VIYADGRRTFYADSVK,GETAGTFDS,-0.24 -0.32 -0.26 -0.45 0.03 -0.23,1 of 18 (1.65)
GFDLNEYGIS,VIYADGMRTYYIDSVK,GNAAGTFDV,-0.51 -0.52 -0.90 -0.70 -0.60 -0.66,1 of 18 (3.19)
GFDLDEYGIS,VIYADGMRTFYQDSVK,GQAAGTFDQ,0.16 -1.23 -0.19 0.46 -0.16 -0.48,0 of 18
GFDLNEYGIS,VIYADGQRTFYIDSVK,GTNAGTFDS,-0.01 -0.26 -0.44 -0.46 -0.30 -0.33,0 of 18
GFDLNEYGIS,VIYADGKRTAYADSVK,GQLAGTFDT,-0.69 -0.69 -0.88 -0.97 -0.81 -0.71,0 of 18
GFDLNEYGIS,VIYADGRRTFYSDSVK,GQVAGIFNV,-0.07 -0.20 -0.18 -0.26 -0.36 -0.13,0 of 18
GFNLNEYGIS,VIYADGRRTFYADSVK,GEIAGTFDL,-0.39 -0.63 -0.78 -0.99 -0.52 -0.70,0 of 18
GFDLEDYGIS,VIYADGRRTAYIDSVK,GEQAGTFDV,0.05 -0.40 -0.68 -0.35 -0.33 -0.12,1 of 18 (1.37)
GFDLNEYGIS,VIYADGRRTFYSDSVK,GEVAGTFVM,-0.20 -0.45 -0.38 -0.37 -0.68 -0.37,0 of 18
GFDLNEYGIS,VIYADGMRTFYADSVK,GQIAGTFDQ,-0.19 -0.28 -0.03 -0.28 -0.25 -0.03,0 of 18
GFDLNEYGIS,VIYADGMRTFYADSVK,GQLAGTFDI,-0.56 -0.71 -0.50 -0.48 -0.47 -0.34,0 of 18
GFDLNEYGIS,VIYADGKRTAYADSVK,GKAAGTFDS,0.94 0.75 0.35 0.00 0.16 0.83,0 of 18
GFDIDEYGIS,VIYADGRRTVYADSVK,GTNAGTFDS,-0.16 -0.52 -1.39 -0.93 -0.92 -0.41,0 of 18
GFNLDEYGIS,VIYADGRRTFYADSVK,GEAAGTFDS,-0.19 0.05 -0.10 -0.10 0.00 0.09,0 of 18
GFDLNEYGIS,VIYADGRRTFYTDSVK,GNAAGTFVV,0.77 1.12 0.95 1.38 0.54 1.13,0 of 18
GFDLNEYGIS,VIYADGRRTFYIDSVK,GQVAGTFDK,-0.90 -0.60 -0.90 -1.08 -0.27 -0.87,0 of 18
GFDLNEYGIS,VIYADGVRTFYTDSVK,GEVAGTFDV,-0.07 -0.50 -0.47 0.05 -0.19 -0.36,0 of 18
GFNLDEYGIS,VIYADGRRTFYADSVK,GENAGTFDM,-0.98 -0.42 -0.94 -1.29 -0.61 -0.81,0 of 18
GFNLDEYGIS,VIYADGRRTFYADSVK,GQVAGTFDN,-0.47 -0.82 -0.59 -0.80 -0.44 -0.53,0 of 18
GFDLNEYGIS,VIYADGRRTAYLDSVK,GQIAGTFDT,-0.55 -0.17 -0.22 -0.56 -0.99 -0.25,0 of 18
GFNLNEYGIS,VIYADGRRTFYADSVK,GGVAGTFDV,n.d. -0.13 -0.86 0.03 0.15 0.08,0 of 18
GFNLDEYGIS,VIYADGMRTFYADSVK,GEVAGTFDT,-0.09 0.85 0.08 -0.54 -0.01 0.62,0 of 18
GFDLNEYGIS,VIYADGRRTFYADSVK,GNAAGTFTL,0.15 -0.19 -0.27 0.13 -0.23 0.15,0 of 18
GFDLNEYGIS,VIYADGRRTFYADSVK,GEAAGTFNV,-0.63 -0.71 -0.47 -0.71 -0.40 -0.55,0 of 18
GFDINEYGIS,VIYADGRRTFYADSVK,GETAGTFDV,-0.39 -0.35 -0.65 -0.59 -0.60 -0.43,0 of 18
GFDLNEYGIS,VIYADGRRTSYIDSVK,GTNAGTFDS,-0.45 -0.83 -0.88 -1.10 -1.04 -0.52,0 of 18
GFNLNEYGIS,VIYADGKRTFYADSVK,GEIAGTFDF,-0.16 -0.43 -0.34 -0.21 -0.44 -0.24,0 of 18
GFELDEYGIS,VIYADGRRTFYADSVK,GEVAGTFDV,0.32 0.14 n.d. -0.56 -0.31 0.36,0 of 18
GFDLNEYGIS,VIYADGRRTAYSDSVK,GTAGGTFDM,0.83 0.63 0.26 0.58 0.20 0.76,0 of 18
GFDLNEYGIS,VIYADGMRTQYIDSVK,GEMAGTFDS,1.02 0.16 0.76 0.39 -0.17 0.83,0 of 18
GFDLNEYGIS,VIYADGRRTQYIDSVK,GNVAGTFDL,n.d. 0.30 0.30 0.15 -0.73 0.77,0 of 18
GFDLNEYGIS,VIYADGRRTFYTDSVK,GEGAGTFDQ,0.37 0.78 1.16 0.17 0.64 0.74,0 of 18
GFDLEDYGIS,VIYADGRRTAYVDSVK,GEVAGTFDV,-0.05 -0.14 -0.24 -0.56 -0.34 -0.05,1 of 18 (1.79)
GFDLNEYGIS,VIYADGRRTQYIDSVK,GNEAGTFDD,0.25 -0.02 -0.89 -0.91 -0.36 -0.13,0 of 18
GFDLNEYGIS,VIYADGVRTFYADSVK,GQNAGTFTL,-0.01 -0.02 -0.32 -0.64 -0.32 -0.20,0 of 18
GFDLNEYGIS,VIYADGLRTFYVDSVK,GETAGTFVS,0.01 0.51 -0.69 -0.93 -0.75 -0.05,0 of 18
GFNLDEYGIS,VIYADGKRTAYSDSVK,GEVAGTFDI,-0.67 -0.07 0.20 -0.54 0.82 -0.20,0 of 18
GFDLDEYGIS,VIYADGRRTFYADSVK,GENAGTFDS,-0.82 -0.23 -0.76 -0.63 -0.81 -1.10,0 of 18
GFDLNEYGIS,VIYADGRRTFYADSVK,GQLAGTFDF,-0.49 -0.86 -0.51 -0.63 -0.55 -0.26,0 of 18
GFDLNEYGIS,VIYADGVRTAYTDSVK,GANAGTFDQ,n.d. n.d. n.d. n.d. n.d. n.d.,0 of 18
GFNLDEYGIS,VIYADGRRTFYSDNVK,GENGGTFDI,0.47 0.53 1.15 0.54 0.71 0.71,0 of 18
GFDLNEYGIS,VIYADGRRTFYSDSVK,GENAGFFDK,n.d. n.d. n.d. n.d. n.d. 2.24,1 of 18 (0.69)
GFDLNEYGIS,VIYADGVRTFYADSVK,GEAAGTFDS,-0.39 -0.17 -0.04 -0.68 -0.10 0.29,0 of 18

Extract of 8 entries:

CDR-H1,CDR-H2,CDR-H3,log10 Kd (nM) by replicate,empty controls
GFDLNEYGIS,VIYADGRRTQYIDSVK,GNEAGTFDD,0.25 -0.02 -0.89 -0.91 -0.36 -0.13,0 of 18
GFDLNEYGIS,VIYADGVRTFYSDSVK,GEAAGTFDQ,-0.63 -0.68 -0.59 -0.48 -0.48 -0.84,0 of 18
GFDLNEYGIS,VIYADGMRTFYADSVK,GQIAGTFDQ,-0.19 -0.28 -0.03 -0.28 -0.25 -0.03,0 of 18
GFDLNEYGIS,VIYADGMRTYYIDSVK,GNAAGTFDV,-0.51 -0.52 -0.90 -0.70 -0.60 -0.66,1 of 18 (3.19)
GFDLNEYGIS,VIYADGMRTQYIDSVK,GEMAGTFDS,1.02 0.16 0.76 0.39 -0.17 0.83,0 of 18
GFNLNEYGIS,VIYADGRRTFYADSVK,GGVAGTFDV,n.d. -0.13 -0.86 0.03 0.15 0.08,0 of 18
GFDLNEYGIS,VIYADGRRTAYSDSVK,GTAGGTFDM,0.83 0.63 0.26 0.58 0.20 0.76,0 of 18
GFDLNEYGIS,VIYADGRRTFYTDSVK,GNAAGTFVV,0.77 1.12 0.95 1.38 0.54 1.13,0 of 18

A sequence measured in both rounds can read differently, since the two assays cover different ranges.
The authors' rule: three or more of the six replicates give a measured affinity, fewer mean a poor binder.
Empty control strains, which show no peptide, gave a signal in 1% of pairings with all heavy chain designs; the median was 2.08 and 95% of these signals were weaker than 0.84. No background was subtracted. Also given: how often the same scFv was detected with the empty control strains, with their mean in brackets.